In test [1] the target is Alpha-2A adrenergic receptor (Homo sapiens, UniProt P08913).
Test [2] concerns the target 5-hydroxytryptamine receptor 1D (Homo sapiens, UniProt P28221).

Chains of the proteins cited; added tags and fusions are not shown. Lines headed by an entry give the natural chain unless they say otherwise; changes in a name come on top.
UniProt P08913, whole entry: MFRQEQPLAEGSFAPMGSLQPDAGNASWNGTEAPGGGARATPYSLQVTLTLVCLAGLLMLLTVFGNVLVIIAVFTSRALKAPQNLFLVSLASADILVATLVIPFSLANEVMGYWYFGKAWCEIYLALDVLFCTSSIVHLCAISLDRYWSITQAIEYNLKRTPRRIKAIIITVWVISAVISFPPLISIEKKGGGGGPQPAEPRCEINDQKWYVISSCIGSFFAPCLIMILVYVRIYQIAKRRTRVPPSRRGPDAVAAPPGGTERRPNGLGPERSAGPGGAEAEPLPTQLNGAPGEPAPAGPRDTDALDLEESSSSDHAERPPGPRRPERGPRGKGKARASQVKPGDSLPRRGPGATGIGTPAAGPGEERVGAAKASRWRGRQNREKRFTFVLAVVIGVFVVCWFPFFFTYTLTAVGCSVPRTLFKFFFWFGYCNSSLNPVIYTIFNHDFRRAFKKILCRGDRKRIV
UniProt P28221: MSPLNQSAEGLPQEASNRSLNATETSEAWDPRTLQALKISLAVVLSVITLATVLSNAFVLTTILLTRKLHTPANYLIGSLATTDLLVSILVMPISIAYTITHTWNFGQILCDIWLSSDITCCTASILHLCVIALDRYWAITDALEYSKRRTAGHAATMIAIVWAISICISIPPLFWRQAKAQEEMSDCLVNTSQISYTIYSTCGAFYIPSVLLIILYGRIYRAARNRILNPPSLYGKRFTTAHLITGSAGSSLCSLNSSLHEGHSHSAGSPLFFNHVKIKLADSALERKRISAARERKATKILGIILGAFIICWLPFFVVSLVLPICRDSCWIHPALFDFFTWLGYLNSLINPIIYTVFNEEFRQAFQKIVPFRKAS

As a reminder, the Ki is a measure of affinity in units of concentration, obtained from inhibition or displacement. A high value points to lower affinity.

In test [1], `O=C1NCCN1CCN1CCC(c2cn(-c3ccc(F)cc3)c3ccc(Cl)cc23)CC1` [1-[2-[4-[5-chloro-1-(4-fluorophenyl)-indol-3-yl]-1-piperidyl]ethyl]imidazolidin-2-one] came in with a Ki of 190 nM. Consider `OCCOCCN1CCN(C2=Nc3ccccc3Sc3ccccc32)CC1` [2-[2-(4-dibenzo[b,f][1,4]thiazepin-11-ylpiperazin-1-yl)ethoxy]ethanol], for which the Ki in test [2] was 560 nM. For the molecule `O=C1Cc2cc(CCN3CCN(c4nsc5ccccc45)CC3)c(Cl)cc2N1` [5-[2-(4-Benzo[d]isothiazol-3-yl-piperazin-1-yl)-ethyl]-6-chloro-1,3-dihydro-indol-2-one], the Ki in test [1] was found to be 154 nM.
